Data: ChEMBL document CHEMBL1641472, “Discovery of novel phenylpyridone derivatives as potent and selective MCH1R antagonists” (Bioorg Med Chem, 2011)

Protein sequences, listed by entry. Tags and fused reporters are not part of them. Lines headed by an entry give the natural chain unless they say otherwise; changes in a name come on top.
UniProt Q99705: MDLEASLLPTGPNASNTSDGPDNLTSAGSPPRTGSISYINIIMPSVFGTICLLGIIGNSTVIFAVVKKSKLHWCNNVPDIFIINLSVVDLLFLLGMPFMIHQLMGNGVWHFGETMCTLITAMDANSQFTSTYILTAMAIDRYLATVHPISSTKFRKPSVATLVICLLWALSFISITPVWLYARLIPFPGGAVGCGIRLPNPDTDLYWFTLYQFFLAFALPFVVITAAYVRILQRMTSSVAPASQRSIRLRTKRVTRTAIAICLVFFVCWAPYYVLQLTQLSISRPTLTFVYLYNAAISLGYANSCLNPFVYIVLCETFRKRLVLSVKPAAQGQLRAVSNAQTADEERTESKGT

Target: Melanin-concentrating hormone receptor 1 (Homo sapiens, UniProt Q99705)
Experiment: Displacement of [125I]MCH from human MCHR1 expressed in CHO cells by competition binding assay
Format: cell-based
Procedure, shortened: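 Competition binding against [¹²⁵I]-MCH radioligand on membranes from CHO cells expressing human MCH1R; IC50 values are means of two experiments.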

IC50: 6.8 nM
SMILES: CCN(CC)CCNc1ccc(-n2ccc(OCc3ccccc3)cc2=O)cc1
